Measured values: patent publication US20150005237A1 (UNIVERSIT T INNSBRUCK, published 2015)

Molecular target: T1, PKA regulatory subunit RIIβ (rat, type IIβ) fused to Venus YFP PCA fragment F[2] (rat, UniProt P12369)
T1 construct: Expressed in COS7 or HEK293 cells from pcDNA3.1; also called RIIβ-F[2]; RegIIβ; not shown: Venus variant of yellow fluorescent protein (YFP), C-terminal fragment F[2], amino acids 159-239
Assay: Venus YFP protein-fragment complementation assay in COS7 cells

binding result: binds
B1: Gαi1 fused to Venus YFP PCA fragment F[1] (other, UniProt B2RSH2 1-354, looked up)
chain: MGCTLSAEDKAAVERSKMIDRNLREDGEKAAREVKLLLLGAGESGKSTIVKQMKIIHEAGYSEEECKQYKAVVYSNTIQSIIAIIRAMGRLKIDFGDSARADDARQLFVLAGAAEEGFMTAELAGVIKRLWKDSGVQACFNRSREYQLNDSAAYYLNDLDRIAQPNYIPTQQDVLRTRVKTTGIVETHFTFKDLHFKMFDVGGQRSERKKWIHCFEGVTAIIFCVALSDYDLVLAEDEEMNRMHESMKLFDSICNNKWFTDTSIILFLNKKDLFEEKIKKSPLTICYPEYAGSNTYEEAAAYIQCQFEDLNKRKDTKEIYTHFTCATDTKNVQFVFDAVTDVIIKNNLKDCGLF
notes: Prey fused to F[1]; also called Gαi isoform 1 prey; not shown: Venus variant of yellow fluorescent protein (YFP), N-terminal fragment F[1], amino acids 1-158
